Source: patent publication US20140350029A1 (published 2014)

Target: T1, α1A (Homo sapiens, UniProt P35348)
T1 sequence (P35348 1-466): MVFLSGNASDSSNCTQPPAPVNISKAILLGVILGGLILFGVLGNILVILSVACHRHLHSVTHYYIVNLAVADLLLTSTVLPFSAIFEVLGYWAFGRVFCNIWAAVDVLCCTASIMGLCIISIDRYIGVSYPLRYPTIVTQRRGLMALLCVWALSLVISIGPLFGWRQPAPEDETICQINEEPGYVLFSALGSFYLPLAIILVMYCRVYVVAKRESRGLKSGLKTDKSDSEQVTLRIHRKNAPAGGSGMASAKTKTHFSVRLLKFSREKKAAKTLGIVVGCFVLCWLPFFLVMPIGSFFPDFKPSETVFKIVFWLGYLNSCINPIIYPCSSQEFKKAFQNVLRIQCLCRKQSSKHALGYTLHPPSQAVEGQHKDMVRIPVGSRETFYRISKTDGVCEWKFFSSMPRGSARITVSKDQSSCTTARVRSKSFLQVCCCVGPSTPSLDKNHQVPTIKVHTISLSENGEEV
Assay: biochemical

SMILES: Cc1cc2c(s1)Nc1ccccc1N=C2N1CCN(C)CC1 [Olanzapine]
- Ki: 109 nM
